System: S. aureus
Assay: MICs and MBCs against selected S. aureus isolates
Format: cell-based, Staphylococcus aureus

SMILES: CC[C@H]1OC(=O)[C@H](C)C(=O)[C@H](C)[C@@H](O[C@@H]2O[C@H](C)C[C@H](N(C)C)[C@H]2O)[C@](C)(OC)C[C@@H](C)C(=O)[C@H](C)[C@H]2N(CCCCn3cnc(-c4cccnc4)c3)C(=O)O[C@]12C [telithromycin, reference compound]
- MBC/MIC (S. aureus ATCC29213): > 8
- bactericidal or bacteriostatic by MBC/MIC (selected S. aureus isolates): bacteriostatic against all selected isolates
- MBC/MIC (strain 1, MRSA, i-ermA): > 8
- MBC/MIC (strain 2, MSSA, i-ermC): > 8
- MBC/MIC (strain 3, MSSA, i-ermC): > 8
- MBC/MIC (strain 4, MRSA, i-ermA): > 8
- MBC/MIC (strain 5, MRSA, i-ermC): > 8
- MBC/MIC (strain 6, MRSA, c-ermB): > 8
- MBC/MIC (strain 7, MRSA, c-ermB): > 8
- MBC/MIC (strain 10, MRSA, c-ermB): > 8
